# In PubChem BioAssay AID504332 (National Center for Advancing Translational Sciences (NCATS), 2011):
# The chains behind the UniProt entries cited, without tags or fusion partners. Residues count along the entry.
# UniProt Q96KQ7, 913-1193 limits assumed: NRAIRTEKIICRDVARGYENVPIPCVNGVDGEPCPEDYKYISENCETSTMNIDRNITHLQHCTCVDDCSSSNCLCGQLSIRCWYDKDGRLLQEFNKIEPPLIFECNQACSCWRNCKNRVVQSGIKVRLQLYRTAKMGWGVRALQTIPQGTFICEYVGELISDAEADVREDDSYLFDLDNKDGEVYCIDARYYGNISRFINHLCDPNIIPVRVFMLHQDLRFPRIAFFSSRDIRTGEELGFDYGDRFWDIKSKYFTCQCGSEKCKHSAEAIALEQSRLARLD
# The list shows a part of the results, in another mix than the full data. Records with an inconclusive call do not appear. Active and inactive are the calls of the source. Calls come from the whole dose curve; as a rule, active = well fitted inhibition curve with a large enough effect; inconclusive = small, poorly fitted or top-dose-only effect; inactive = no such curve, though single readings can be large or run the other way.
# Biological target: Histone-lysine N-methyltransferase EHMT2 (Homo sapiens) (UniProt Q96KQ7)
# Assay: qHTS Assay for Inhibitors of Histone Lysine Methyltransferase G9a; note: nearly all actives have a fitted effect of over 75% in size
# Conditions: G9a H3K9 monomethylation, AlphaScreen, 2 h; series mostly up to 102 µM; activity, negative = inhibition: at the top concentration
# % is set by controls: 0 for no effect and ±100 for the full control effect; potency is the fitted concentration of half-maximal effect.
Structure (SMILES),"activity, negative = inhibition",Potency
CP(=S)(Nn1cnnc1)Oc1ccccc1 (centres undefined),inactive: 8.93% [at 12.7 µM],
CP(=O)(Nc1ccccc1Br)Oc1ccccc1 (centres undefined),inactive: -3.83% [at 59 µM],
COc1ccccc1OP(C)(=O)Nc1ccccc1 (centres undefined),inactive: 24.2% [at 59 µM],
CCOC(=O)c1ccc(NP(C)(=O)Oc2ccc(OC)cc2)cc1 (centres undefined),inactive: -4.25% [at 59 µM],
CCOP(C)(=S)SCC(=O)NC(C)C(=O)O (centres undefined),inactive: -22.4% [at 59 µM],
CP(=O)(Nc1ccccn1)Oc1ccc(Cl)cc1 (centres undefined),inactive: 7.23% [at 59 µM],
CP(=O)(Nc1ccc(SC(F)(F)F)cc1)Oc1ccc(Cl)cc1 (centres undefined),inactive: 36.3%,
Cc1cccc(C)c1OP(C)(=O)Nc1ccc(SC(F)(F)F)cc1 (centres undefined),inactive: -0.43%,
CP(=O)(Oc1ccccc1)OC(c1ccccc1)C(F)(F)F (centres undefined),inactive: 3.93%,
CCc1ccc(OP(C)(=O)N2CCN(c3ccc([N+](=O)[O-])cc3)CC2)cc1 (centres undefined),inactive: -20.1%,
CP(=O)(NC(=O)Nc1ccccc1)Oc1ccccc1 (centres undefined),inactive: 2.49%,
Cc1cc(C)cc(OP(C)(=O)Nc2ccc(SC(F)(F)F)cc2)c1 (centres undefined),inactive: -1.98%,
O=[N+]([O-])[O-].[NH4+],inactive: 10.7% [at 59 µM],
CCN(CC)CCCOC(=O)C(O)(c1ccccc1)c1ccccc1,inactive: 3.63%,
COc1ccccc1OP(C)(=O)Nc1ccc(C)cc1 (centres undefined),inactive: -7.85%,
Cc1ccc(NP(C)(=O)Oc2ccccc2)c(C)c1 (centres undefined),inactive: 0.274% [at 59 µM],
CCOC(=O)c1ccc(NP(C)(=O)Oc2ccccc2)cc1 (centres undefined),inactive: 10.1% [at 59 µM],
Cc1cc(C)cc(OP(C)(N)=O)c1 (centres undefined),inactive: -38.8%,
COc1ccccc1OP(C)(=O)Nc1cc(Cl)ccc1C (centres undefined),inactive: 1.42%,
COc1ccc(OP(C)(=O)Nc2cccc(F)c2)cc1 (centres undefined),inactive: 15.5%,
O=[N+]([O-])c1cc([N+](=O)[O-])c(Nc2cccnc2)c([N+](=O)[O-])c1,inactive: -10.4% [at 2.33 µM],
CC(C)(C)c1ccc(OP(C)(=O)Nc2ccc(SC(F)(F)F)cc2)cc1 (centres undefined),inactive: 34.7% [at 59 µM],
Cc1cccc(C)c1OP(C)(N)=O (centres undefined),inactive: -50.1%,
O=[N+]([O-])OCC(CO[N+](=O)[O-])(CO[N+](=O)[O-])CO[N+](=O)[O-],inactive: 6.24% [at 59 µM],
O=[N+]([O-])c1cccc([N+](=O)[O-])c1,inactive: -1.06% [at 59 µM],

Structure (SMILES),"activity, negative = inhibition",Potency
Cc1ccc(C)c(NP(C)(=O)Oc2ccccc2)c1 (centres undefined),inactive: -29.8% [at 12.7 µM],
CP(=O)(Nc1cccc(Br)c1)Oc1ccccc1 (centres undefined),inactive: -1.05%,
Cc1cc(C)cc(OP(C)(=O)Nc2ccccn2)c1 (centres undefined),inactive: -0.16% [at 12.7 µM],
COc1ccccc1OP(C)(=O)Nc1cccc(Br)c1 (centres undefined),inactive: 3.27% [at 12.7 µM],
CCOC(=O)c1ccc(NP(C)(=O)Oc2cc(C)cc(C)c2)cc1 (centres undefined),inactive: -8.05% [at 59 µM],
Cc1cc(C)cc(OP(C)(=O)Nc2ccc(C)cc2C)c1 (centres undefined),inactive: 13.7%,
CN1CCCCC1COC(=O)C1(O)c2ccccc2CCc2ccccc21 (centres undefined),inactive: -22.5% [at 59 µM],
COc1ccccc1OP(C)(=O)Nc1c(C)cccc1C (centres undefined),inactive: -9.33%,
CP(=O)(Nc1ccc(SC(F)(F)F)cc1)Oc1ccccc1 (centres undefined),inactive: 8.17% [at 59 µM],
CCCOc1ccc(NP(C)(=O)Oc2ccc(Cl)cc2)cc1 (centres undefined),inactive: -1.21%,
O=[N+]([O-])c1cc([N+](=O)[O-])c(Nc2nnnn2CCO)c([N+](=O)[O-])c1,,active: 79.4 µM
CC1=C2N=C(C=C3N=C(C(C)=C4[N-][C@@](C)([C@@H]5N=C1[C@](C)(CCC(=O)NC[C@@H](C)OP(=O)([O-])O[C@H]1[C@@H](O)[C@@H](n6cnc7cc(C)c(C)cc76)O[C@@H]1CO)[C@H]5CC(N)=O)[C@@](C)(CC(N)=O)[C@@H]4CCC(N)=O)[C@@](C)(CC(N)=O)[C@@H]3CCC(N)=O)C(C)(C)[C@@H]2CCC(N)=O.[C-]#N.[Co+3],inactive: -33.1% [at 12.7 µM],
O=[N+]([O-])c1ccc(OP2(=O)COCCO2)cc1 (centres undefined),inactive: -8.24%,
COc1ccc(OP(C)(=O)Nc2cccc(Br)c2)cc1 (centres undefined),inactive: 17.3%,
CN(C)CCOC(=O)C(O)(c1ccccc1)C1CCCCC1 (centres undefined),inactive: -8.38% [at 59 µM],
COc1ccc(NP(C)(=O)Oc2ccccc2OC)cc1 (centres undefined),inactive: -42%,
CP(=O)(Nc1ccc2c(c1)OCCO2)Oc1ccccc1 (centres undefined),inactive: 8.47% [at 59 µM],
Cc1ccccc1NP(C)(=O)Nc1ccccc1C,inactive: 6.18% [at 59 µM],
CCOP(C)(=S)SCC(=O)NC(C)(CC)C(=O)O (centres undefined),inactive: -32.4% [at 59 µM],
CP(=O)(Nc1ccccc1F)Oc1ccccc1 (centres undefined),inactive: -4.52% [at 59 µM],
CC(C)c1ccc(OP(C)(=O)Nc2ccc(SC(F)(F)F)cc2)cc1 (centres undefined),inactive: -8.98% [at 59 µM],
CCN(CC)CCCOC(=O)C(O)(c1ccccc1)C1CCCCC1 (centres undefined),inactive: -0.85% [at 59 µM],
CP(=O)(Nc1ccccc1)Oc1ccc(F)cc1 (centres undefined),inactive: -8.38% [at 0.0925 µM],
CCCCCOc1ccc(NP(C)(=O)Oc2ccc(Cl)cc2Cl)cc1 (centres undefined),inactive: -0.441% [at 12.7 µM],
CCOC(=O)c1ccc(NP(C)(=O)Oc2ccc(F)cc2)cc1 (centres undefined),inactive: 12.4%,

Structure (SMILES),"activity, negative = inhibition",Potency
COc1ccc(OP(C)(=O)Nc2ccc(SC(F)(F)F)cc2)cc1 (centres undefined),inactive: 19.3%,
CP(=O)(OCCOc1ccccc1)OCCOc1ccccc1,inactive: 13.8%,
CP(=O)(Nc1ccc(Cl)cc1Cl)Oc1ccccc1 (centres undefined),inactive: 1.47%,
Cc1cc(C)cc(OP(C)(=O)Nc2cccc(C(F)(F)F)c2)c1 (centres undefined),inactive: 10.9%,
COc1ccccc1OP(C)(=O)Nc1ccc(C)c(C)c1 (centres undefined),inactive: 13.7%,
COc1ccc(OP(C)(=O)Nc2ccccc2Br)cc1 (centres undefined),inactive: -5.93% [at 59 µM],
Cc1c(NP(C)(=O)Oc2ccc(C(C)C)cc2)c(=O)n(-c2ccccc2)n1C (centres undefined),inactive: -0.147% [at 59 µM],
CP(=O)(Nc1ccccn1)Oc1ccccc1 (centres undefined),inactive: -31.1% [at 59 µM],
COc1ccccc1OP(C)(=O)Nc1ccc(C)cc1C (centres undefined),inactive: 64.3% [at 12.7 µM],
CCc1ccc(OP(C)(=O)O)cc1,inactive: 2.7% [at 12.7 µM],
COc1ccccc1OP(C)(=O)Nc1ccc(Br)cc1 (centres undefined),inactive: 15.4%,
COc1ccc(OP(C)(=O)Nc2ccccn2)cc1 (centres undefined),inactive: 4.95%,
CC(C)(C)c1ccc(OP(C)(=O)O)cc1,inactive: 7.58% [at 12.7 µM],
COc1ccccc1OP(C)(=O)Nc1ccccc1Br (centres undefined),inactive: -32%,
CP(=O)(Nc1ccc(Cl)cc1)Oc1ccc(F)cc1 (centres undefined),inactive: 33.2%,
CCN(CC)CC(O)COC(=O)C(O)(c1ccccc1)C1CCCCC1 (centres undefined),inactive: -41.1%,
COc1ccc(OP(C)(=O)Nc2ccc(Br)cc2)cc1 (centres undefined),inactive: 18.3% [at 59 µM],
COc1ccccc1OP(C)(=O)Nc1c(C)n(C)n(-c2ccccc2)c1=O (centres undefined),inactive: 4.76%,
OCCSCCO,inactive: -34.9% [at 2.33 µM],
CP(=O)(Oc1ccccc1)N1CCOC1=O (centres undefined),inactive: 2.12% [at 59 µM],
CCc1ccc(OP(C)(=O)Nc2cccnc2)cc1 (centres undefined),inactive: 12%,
C/C1=C2N=C(/C=C3N=C(/C(C)=C4\[N-][C@@](C)([C@H]5N=C1[C@@](C)(CCC(=O)NC[C@H](C)OP(=O)([O-])O[C@@H]1[C@H](O)[C@H](n6cnc7cc(C)c(C)cc76)O[C@@H]1CO)[C@@H]5CC(N)=O)[C@](C)(CC(N)=O)[C@H]4CCC(N)=O)[C@@](C)(CC(N)=O)[C@@H]\3CCC(N)=O)C(C)(C)[C@@H]/2CCC(N)=O.[C-]#N.[Co+3],inactive: 10.6% [at 21.5 µM],
CC(C)OP(=O)(F)OC(C)C,inactive: -0.772% [at 12.7 µM],
CCOC(=O)c1ccc(NP(C)(=O)Oc2ccc(Cl)cc2)cc1 (centres undefined),inactive: 14.6% [at 59 µM],
